This experiment addresses T1, hGSTM1-1 (Homo sapiens, UniProt P09488).
T1 sequence (P09488 1-218): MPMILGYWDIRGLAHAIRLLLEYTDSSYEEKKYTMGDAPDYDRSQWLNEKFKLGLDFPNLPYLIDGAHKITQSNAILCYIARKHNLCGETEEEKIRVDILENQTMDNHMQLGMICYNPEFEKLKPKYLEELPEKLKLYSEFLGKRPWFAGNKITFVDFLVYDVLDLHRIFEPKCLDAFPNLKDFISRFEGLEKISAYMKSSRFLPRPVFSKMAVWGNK
The conditions noted are these: pH 7.4, 25 °C. An excerpt: Furthermore, the catalytic activity of hGSTM1-1 cannot be regained by extensive dialysis or gel filtration on Sephadex G-25. […] The Kapp calculated by inactivation experiments is in good agreement to that determined by kinetic inhibition analysis.
The rate of inactivation was followed by periodically removing samples for assays of enzymatic activity.

Turning to `NC(CCC(=O)NC(CSCCS(=O)(=O)F)C(=O)NCC(=O)O)C(=O)O` (centres unmarked) [GS-ESF, S-glutathionyl ethylenesulfonyl fluoride], where the note is “GS-ESF 0.025–0.2 mM”, the “k3, maximal rate of inactivation” value stood at 0.052 ± 0.02 min⁻¹. The “Effect on catalytic activity on incubation” value (activity not regained by dialysis or gel filtration) was “time-dependent loss in catalytic activity”.

Source of the values: publication PMC8998827, “Ligandability Assessment of Human Glutathione Transferase M1-1 Using Pesticides as Chemical Probes” (International Journal of Molecular Sciences, 2022).
